The values below come from article PMC5085626, “Characterization of a β-Adrenergic-Like Octopamine Receptor in the Oriental Fruit Fly, Bactrocera dorsalis (Hendel)” (International Journal of Molecular Sciences, 2016).

By UniProt entry, the sequences of proteins in these tests, tags left out.
UniProt A0ABM3J3U4, entry or part of it: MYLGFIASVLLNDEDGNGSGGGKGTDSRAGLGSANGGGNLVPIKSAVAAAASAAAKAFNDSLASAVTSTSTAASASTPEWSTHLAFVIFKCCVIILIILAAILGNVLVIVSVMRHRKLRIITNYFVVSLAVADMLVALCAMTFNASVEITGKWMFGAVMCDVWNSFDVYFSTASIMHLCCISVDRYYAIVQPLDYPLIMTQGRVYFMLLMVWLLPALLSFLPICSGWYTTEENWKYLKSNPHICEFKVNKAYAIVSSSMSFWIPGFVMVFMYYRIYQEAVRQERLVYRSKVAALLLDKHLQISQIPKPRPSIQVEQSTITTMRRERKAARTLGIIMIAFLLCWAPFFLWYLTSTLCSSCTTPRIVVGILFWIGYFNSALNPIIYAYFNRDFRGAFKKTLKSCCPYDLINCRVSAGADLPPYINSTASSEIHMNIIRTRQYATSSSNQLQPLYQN

SMILES strings stand for the structures. Counter-ions that a name gives are not always drawn.

The target of this assay is BdOctβR1 (Bactrocera dorsalis, UniProt A0ABM3J3U4).

As to `CN1CCN2c3ccccc3Cc3ccccc3C2C1` (stereo not shown) [mianserin, mianserin hydrochloride], the “antagonistic activity (in words)” value is reported as “significant antagonistic activity”.
